Experiments:
Format in all cases: cell-based, human
[1] = tested on: AES-induced apoptosis in 293T cells; test: Caspase inhibitors and anti-apoptotic proteins against AES
From the text: (§1) Results from these experiments indicated no increase of 85-kD PARP apoptotic fragment in the lysates, indicating lack of caspase activation. 293T cells were also co-transfected with Bit1 or AES and the caspase inhibitor proteins crmA and XIAP. […] A chemical pan-caspase inhibitor, z-VAD-fmk, was also ineffective against Bit1 and AES.

[2] = tested on: Bit1-induced apoptosis in 293T cells; test: Caspase inhibitors and anti-apoptotic proteins against Bit1; details: cytosolic Bit1
From the text: as §1

[3] = tested on: Bit1-induced apoptosis in HEK 293 cells; test: Co-transfection of Bit1 with anti-apoptotic proteins; details: HEK 293 cells co-transfected with Bit1
Procedure: HEK 293 cells also were co-transfected with Bit1 and an activated form of PI3K, or Bcl-2 or Bcl-xL or one of various caspase inhibitors (XIAP, p35 or CrmA).
Co-transfections were performed with cells plated on non-coated dishes transfected with 5 μg Bit1 plasmid alone or together with 10 μg dominant negative (DN) R-Ras, or activated H-Ras plasmid (Zou et al., Proc. Natl. Acad. Sci. USA 96: 13813-13818 (1999)). Cells were transfected as described above with expression constructs pcDNA3-Bcl-2, Bcl-xL, p35, CrmA or XIAP provided by Dr. Guy Salvesen (The Burnham Institute), and described in Ryan et al., Immediate publication, DOI 10:1042/BJ20020863 (2002); Deveraux et al., EMBO J. 18:5242 (1999); and Cardone et al., Science 282: 1318 (1998). Expression of the transfected proteins was confirmed by immunoblotting. Apoptosis was assayed as described above.

Substance: XIAP: caspase inhibitor protein, transfected expression construct
- effect on apoptosis induced by AES [1]: no effect
- effect on apoptosis induced by Bit1 [2]: no effect
- effect on apoptosis induced by Bit1 [3]: little or no effect

— patent publication US8017326B2, “Methods of modulating cell death based on the Bit-1/AES regulatory pathway” (Sanford-Burnham Medical Research Institute, priority 2002, dated 2011)
